Measured values: ChEMBL document CHEMBL4732189, “A facile synthesis of diaryl pyrroles led to the discovery of potent colchicine site antimitotic agents” (Eur J Med Chem, 2021)

species on record: Bos taurus; assay: Potency index, ratio of CA-4 IC50 to test compound IC50 for inhibition of bovine brain tubulin polymerization; format: tissue-based

Compound | Ratio IC50
CCOc1ccc(-c2c[nH]cc2-c2cc(OC)c(OC)c(OC)c2)cc1Cl | 1.5
CCOc1ccc(-c2c[nH]cc2-c2cc(OC)c(OC)c(OC)c2)cc1 | 1.5
CCOc1ccc(-c2c[nH]cc2-c2cc(OC)c(OC)c(OC)c2)cc1F | 1.5
